Amino acid sequences for entries named in this document (tags omitted). Residues count along the entry.
UniProt Q9Y4B6, 1058-1396 limits assumed: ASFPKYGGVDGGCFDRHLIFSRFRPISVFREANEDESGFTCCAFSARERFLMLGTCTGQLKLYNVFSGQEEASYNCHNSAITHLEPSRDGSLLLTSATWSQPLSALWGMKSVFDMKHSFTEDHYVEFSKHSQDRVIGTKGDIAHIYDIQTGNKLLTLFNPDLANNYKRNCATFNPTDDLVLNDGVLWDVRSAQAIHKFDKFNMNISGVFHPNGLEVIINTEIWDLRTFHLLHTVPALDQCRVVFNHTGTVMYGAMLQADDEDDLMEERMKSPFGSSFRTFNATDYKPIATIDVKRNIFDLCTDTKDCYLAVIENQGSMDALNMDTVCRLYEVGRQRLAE

According to patent US20260382728A1, “MODIFIED PROTEINS AND PROTEIN BINDERS AND DEGRADERS” (published 2026):

target: DCAF1 (1058-1396) (Homo sapiens, UniProt Q9Y4B6); assay: SPR binding to DCAF1 (1058-1396), steady state Kd; conditions: 25 °C, steady state affinity model, Table 7

Row | Structure (SMILES) | Kd [µM]
1 | c1ccc(NCC2CN(c3cc(N4CCOCC4)ncn3)C2)cc1 | > 100
2 | c1cnc(N2CCC[C@@H](Nc3cc(N4CCOCC4)ncn3)C2)nc1 | < 25
3 | c1ccc(NC2CCC(CNc3cc(N4CCOCC4)ncn3)C2)cc1 (centres unmarked) | > 100
4 | CNC(=O)c1ccnc(N2C[C@H]3C[C@@H](C2)N3c2ccccc2)c1 | > 100
5 | Fc1cccc(N2CCC[C@@H](Nc3cc(N4CCOCC4)n4ncnc4c3)C2)c1 | > 100
6 | c1ccc(NC2CCCCN(c3cc(N4CCOCC4)ncn3)C2)cc1 (centres unmarked) | 50 to 100
7 | c1nc(NC2CCN(C3CCCCC3)CC2)cc(N2CCOCC2)n1 | 50 to 100
8 | CNC(=O)c1ccnc(N2CC3(CC(Nc4ccccc4)C3)C2)c1 | > 100
9 | Fc1cccc(N2CCC[C@@H](Nc3cc(N4CCOCC4)cnn3)C2)c1 | > 100
10 | Fc1cccc(N2CCC[C@@H](Nc3ncnc(N4CCOCC4)n3)C2)c1 | 50 to 100
11 | OCc1ccc(N2CCC[C@@H](Nc3cc(N4CCOCC4)ncn3)C2)nc1 | < 25
12 | CNC(=O)c1ccnc(N2CCC3(CCN(c4ccccc4)C3)C2)c1 (centres unmarked) | < 25
13 | Cc1nnc(N2CCC[C@@H](Nc3cc(N4CCOCC4)ncn3)C2)o1 | < 25
14 | Fc1cccc(N2CCC[C@@H](Nc3nc(N4CCOCC4)c4nc[nH]c4n3)C2)c1 | > 100
15 | Fc1cccc(N2CCC[C@@H](Nc3cccc(N4CCOCC4)n3)C2)c1 | > 100
16 | O=C(c1ccc(Cl)c(Cl)c1)N1CCC2(CCN(c3ccccc3)C2)C1 (centres unmarked) | > 100
17 | c1ccc(N2CC3(CCCN(c4cc(N5CCOCC5)ncn4)C3)C2)cc1 | > 100
18 | c1nc(N[C@@H]2CCCN(C3CCCC3)C2)cc(N2CCOCC2)n1 | 50 to 100
19 | CNC(=O)c1cc(N2CCC(Nc3ccccc3)C2)ncn1 (centres unmarked) | > 100
20 | c1nc(N[C@@H]2CCCN(c3cn[nH]c3)C2)cc(N2CCOCC2)n1 | > 100
21 | OCc1ccc(N2CCC[C@@H](Nc3cc(N4CCOCC4)ncn3)C2)cc1F | > 100
22 | c1ccc(N2CCC23CCN(c2cc(N4CCOCC4)ncn2)CC3)cc1 | > 100
23 | c1ccc(N2CC(CNc3cc(N4CCOCC4)ncn3)C2)cc1 | > 100

Row | Structure (SMILES) | Kd [µM]
24 | c1ccc(NC2CCN(c3cc(N4CCOCC4)ncn3)C2)cc1 (centres unmarked) | < 25
25 | C#Cc1cccc(N2CCC[C@@H](Nc3cc(N4CCOCC4)ncn3)C2)n1 | > 100
26 | Fc1cccc(N2CCC[C@@H](Nc3cc(N4CCOCC4)c4nc[nH]c4n3)C2)c1 | > 100
27 | Cc1cc(N2CCC[C@@H](Nc3cc(N4CCOCC4)ncn3)C2)n(C)n1 | > 100
28 | CN(c1ccccc1)C1COC2(C1)CN(c1cc(N3CCOCC3)ncn1)C2 (centres unmarked) | > 100
29 | c1ccc(N2CC3(C2)CN(c2cc(N4CCOCC4)ncn2)C3)cc1 | > 100
30 | COc1cnc(N2CCC[C@@H](Nc3cc(N4CCOCC4)ncn3)C2)cn1 | 50 to 100
31 | N#Cc1nnc(N2CCC[C@@H](Nc3cc(N4CCOCC4)ncn3)C2)s1 | > 100
32 | c1nc(N[C@@H]2CCCN(c3cc(C4CC4)no3)C2)cc(N2CCOCC2)n1 | 50 to 100
33 | Cn1ccnc1NC1CCN(c2cc(N3CCOCC3)ncn2)C1 (centres unmarked) | > 100
34 | C#Cc1cc(N2CCC[C@@H](Nc3cc(N4CCOCC4)ncn3)C2)ncn1 | > 100
35 | c1ccc(N2CCC3(CCN(c4cc(N5CCOCC5)ncn4)C3)C2)cc1 (centres unmarked) | > 100
36 | CNC(=O)c1cc(NCC2CCN(c3ccccc3)CC2)ncn1 | > 100
37 | c1ccc(N2CCC[C@@H](Nc3cc(N4CCOCC4)ncn3)C2)nc1 | 25 to 50
38 | c1ccc(NC2CN(c3cc(N4CCOCC4)ncn3)C2)cc1 | > 100
39 | Fc1cccc(N2CCC[C@H](Nc3nc(N4CCOCC4)ns3)C2)c1 | > 100
40 | O=C(c1ccc(Cl)c(Cl)c1)N1CC2(CC(Nc3ccccc3)C2)C1 | 25 to 50
41 | CNC(=O)c1cc(N2CCC3(CCN(c4ccccc4)C3)C2)ncn1 (centres unmarked) | > 100
42 | O=C(NCC(CO)CNc1ccccc1)c1ccc(Cl)c(Cl)c1 (centres unmarked) | > 100
43 | Cc1cnc(N2CCC[C@@H](Nc3cc(N4CCOCC4)ncn3)C2)cn1 | 25 to 50
44 | c1ccc(N2CCC[C@@H](Nc3cc(N4CCOCC4)ncn3)C2)cc1 | 25 to 50
45 | CCC(=O)N1CC2(C1)CN(c1cc(N3CCOCC3)ccn1)C2 | > 100
46 | Nc1ccc(N2CCC[C@@H](Nc3cc(N4CCOCC4)ncn3)C2)cc1 | > 100

Row | Structure (SMILES) | Kd [µM]
47 | OCc1scnc1N1CCC[C@@H](Nc2cc(N3CCOCC3)ncn2)C1 | 25 to 50
48 | c1ccc(N[C@H]2CCCN(c3cc(N4CCOCC4)ncn3)C2)cc1 | > 100
49 | CNC(=O)c1ccnc(N2C[C@@H]3C[C@H]2CN3c2ccccc2)c1 | > 100
50 | Cc1ccc(C)c(N2CCC[C@@H](Nc3cc(N4CCOCC4)ncn3)C2)c1 | > 100
51 | c1ccc(NC2CC3CC2N(c2cc(N4CCOCC4)ncn2)C3)cc1 (centres unmarked) | 50 to 100
52 | C#Cc1ccc(N2CCC[C@@H](Nc3cc(N4CCOCC4)ncn3)C2)cc1 | > 100
53 | c1ccc(N2CC3CCN(c4cc(N5CCOCC5)ncn4)C3C2)cc1 (centres unmarked) | > 100
54 | Oc1cccc(N2CCC[C@@H](Nc3cc(N4CCOCC4)ncn3)C2)c1 | 50 to 100
55 | O=C(c1ccc(Cl)c(Cl)c1)N1C[C@H]2C[C@@H]1CN2c1ccccc1 | > 100
56 | Fc1cccc(N2CCC3C(CNc4cc(N5CCOCC5)ncn4)C3C2)c1 (centres unmarked) | > 100
57 | Fc1cccc(N2CCC[C@@H](Nc3nsc(N4CCOCC4)n3)C2)c1 | > 100
58 | c1ccc(N2CCOC3(CCN(c4cc(N5CCOCC5)ncn4)CC3)C2)cc1 | 50 to 100
59 | O=C(c1ccc(Cl)c(Cl)c1)N1CCC2(CC1)CN(c1ccccc1)CCO2 | > 100
60 | CNC(=O)c1ccnc(N2CC3(CN(c4ccccc4)C3)C2)c1 | > 100
61 | c1nc(N[C@@H]2CCCN(c3nc[nH]n3)C2)cc(N2CCOCC2)n1 | > 100
62 | Cc1cc(N2CCC[C@@H](Nc3cc(N4CCOCC4)ncn3)C2)ncn1 | > 100
63 | Fc1cccc(N2CCC[C@@H](Nc3cc(N4CCOCC4)ccn3)C2)c1 | > 100
64 | CN1CCN(c2cc(N[C@@H]3CCCN(c4cccc(F)c4)C3)ncn2)CC1 | > 100
65 | Cc1cncc(N2CCC[C@@H](Nc3cc(N4CCOCC4)ncn3)C2)n1 | > 100
66 | FC(CNc1cc(N2CCOCC2)ncn1)=C1CN(c2ccccc2)C1 | < 25
67 | O=C(c1ccc(Cl)c(Cl)c1)N1CCC2(CC1)CCN2c1ccccc1 | > 100
68 | c1ccc(N2CCC(Nc3cc(N4CCOCC4)ncn3)CC2)cc1 | > 100
69 | c1nc(N[C@@H]2CCCN(C3CCCCC3)C2)cc(N2CCOCC2)n1 | > 100

Row | Structure (SMILES) | Kd [µM]
70 | C=CC(=O)N1CCN(c2cc(N3CCC(Nc4ccccc4)C3)ncn2)CC1 (centres unmarked) | > 100
71 | c1ccc(N2CCC3(CCN(c4cc(N5CCOCC5)ccn4)C3)C2)cc1 (centres unmarked) | > 100
72 | c1ccc(NC2CCC3CN(c4cc(N5CCOCC5)ncn4)CC32)cc1 (centres unmarked) | > 100
73 | OCc1ccc(N2CCC[C@@H](Nc3cc(N4CCOCC4)ncn3)C2)cc1 | > 100
74 | Fc1cccc(N2CCC[C@@H](Nc3cnnc(N4CCOCC4)c3)C2)c1 | > 100
75 | Nc1ccc(N2CCC[C@@H](Nc3cc(N4CCOCC4)ncn3)C2)c(Br)c1 | > 100
76 | O=C(N[C@H]1[C@@H]2CN(c3ccccc3)C[C@@H]21)c1ccc(Cl)c(Cl)c1 | 25 to 50
77 | Fc1cnc(N2CCC[C@@H](Nc3cc(N4CCOCC4)ncn3)C2)c(F)c1 | 25 to 50
78 | CNC(=O)c1ccnc(NCC2CN(c3ccccc3)C2)n1 | > 100
79 | O=C(c1ccc(Cl)c(O)c1)N1CC2(C1)CN(c1ccccc1)C2 | < 25
80 | c1ccc(N2CCC3(CC2)CC(CNc2cc(N4CCOCC4)ncn2)C3)cc1 | > 100
81 | c1ccc(N2C[C@H]3C[C@@H]2CN3c2cc(N3CCOCC3)ncn2)cc1 | > 100
82 | N#CCn1cc(N2CCC[C@@H](Nc3cc(N4CCOCC4)ncn3)C2)cn1 | > 100
83 | Fc1cccc(N2CCC[C@@H](Nc3nccc(N4CCOCC4)n3)C2)c1 | > 100
84 | CC(=O)NC1CCN(c2nccc(N3CCOCC3)n2)C1 (centres unmarked) | > 100
85 | c1ccc(N2C[C@@H]3[C@H](C2)[C@H]3Nc2cc(N3CCOCC3)ncn2)cc1 | < 25
86 | O=C(c1ccc(Cl)c(Cl)c1)N1C[C@@H]2C[C@H]1CN2c1ccccc1 | 50 to 100
87 | c1ccc(N2CCC3(C2)CN(c2cc(N4CCOCC4)ncn2)C3)cc1 | > 100
88 | CNC(=O)c1ccnc(N[C@@H]2CCCN(c3cccc(F)c3)C2)c1 | > 100
89 | Oc1cc(N2CCC[C@@H](Nc3cc(N4CCOCC4)ncn3)C2)ccn1 | > 100
90 | CNC(=O)c1ccnc(N2CCC3(CC2)CN(c2ccccc2)CCO3)c1 | > 100
91 | CNC(=O)c1ccnc(N[C@H]2[C@@H]3CN(c4ccccc4)C[C@@H]32)c1 | > 100
92 | Oc1cncc(N2CCC[C@@H](Nc3cc(N4CCOCC4)ncn3)C2)n1 | > 100

Row | Structure (SMILES) | Kd [µM]
93 | c1cc(N2CCC(CNc3cc(N4CCOCC4)ncn3)CC2)ncn1 | > 100
94 | c1ccc(NC2CC(CCNc3cc(N4CCOCC4)ncn3)C2)cc1 (centres unmarked) | < 25
95 | CCC(=O)N1CC2(C1)CN(c1nccc(N3CCOCC3)n1)C2 | 25 to 50
96 | C#Cc1ccc(N2CCC[C@@H](Nc3cc(N4CCOCC4)ncn3)C2)nn1 | > 100
97 | CNC(=O)c1cc(N[C@@H]2CCCN(c3cccc(F)c3)C2)ncn1 | 25 to 50
98 | c1nc(NC2CCN(C3CCCC3)CC2)cc(N2CCOCC2)n1 | 25 to 50
99 | c1ccc(NCC2CCN(c3cc(N4CCOCC4)ncn3)C2)cc1 (centres unmarked) | > 100
100 | Cc1cc(N2CCC[C@@H](Nc3cc(N4CCOCC4)ncn3)C2)ncc1N | > 100
101 | c1ccc(N2CCC(CCNc3cc(N4CCOCC4)ncn3)C2)cc1 (centres unmarked) | > 100
102 | c1cnc(N2CCC[C@@H](Nc3cc(N4CCOCC4)ncn3)C2)cn1 | 25 to 50
103 | O=C(c1ccc(Cl)c(Cl)c1)N1C[C@H]2C[C@@H](C1)N2c1ccccc1 | > 100
104 | c1ncc(N2CCC[C@@H](Nc3cc(N4CCOCC4)ncn3)C2)cn1 | > 100
105 | CNC(=O)c1ccnc(N[C@H]2CC[C@H](Nc3ccccc3)CC2)c1 | > 100
106 | c1ccc(N2CCC3C2CCN3c2cc(N3CCOCC3)ncn2)cc1 (centres unmarked) | > 100
107 | OCc1ccc(N2CCC[C@@H](Nc3nccc(N4CCOCC4)n3)C2)nc1 | < 25
108 | c1ccc(N2CC3(CCC3CNc3cc(N4CCOCC4)ncn3)C2)cc1 (centres unmarked) | > 100
109 | Nc1ncnc(N2CCC[C@@H](Nc3cc(N4CCOCC4)ncn3)C2)c1F | 50 to 100
110 | c1nc(N2CCOCC2)cc(N2CCC(Nc3ccc4cc[nH]c4c3)C2)n1 (centres unmarked) | 50 to 100
111 | c1ccc(N2CCC3CN(c4cc(N5CCOCC5)ncn4)CC32)cc1 (centres unmarked) | > 100
112 | N#Cc1cnc(N2CCC[C@@H](Nc3cc(N4CCOCC4)ncn3)C2)cn1 | > 100
113 | Nc1ccnc(N2CCC[C@@H](Nc3cc(N4CCOCC4)ncn3)C2)c1 | > 100
